# AlphaSeq binding of Ab-14 heavy chain variants to a spike HR2 peptide

From the AlphaSeq antibody data of Li et al. 2023 (doi:10.1038/s41467-023-39022-2), copy in the FLAb collection.

Target peptide (SARS-CoV-2 spike, HR2 region): PDVDLGDISGINAS

Parent: Ab-14, a human scFv built as VH, three GGGGS repeats, VL. Only the CDRs of the heavy chain vary.
VH: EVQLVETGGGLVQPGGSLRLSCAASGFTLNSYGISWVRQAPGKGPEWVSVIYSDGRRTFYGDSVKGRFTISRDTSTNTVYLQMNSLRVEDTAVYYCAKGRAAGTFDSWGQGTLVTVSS
VL: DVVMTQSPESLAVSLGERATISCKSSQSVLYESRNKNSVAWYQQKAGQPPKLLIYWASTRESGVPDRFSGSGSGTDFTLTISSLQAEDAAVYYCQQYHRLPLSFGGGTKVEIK

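The parent was found by panning a naive human phage display library on the peptide. Designed CDR sequences, proposed from the first random library and measured here. Group labels follow the data file (Ctrl: baseline library sampled from a position-specific scoring matrix, with some repeated check sequences; GPLM: also part of the Gaussian process libraries; Gen: genetic algorithm; a sequence that several methods proposed may carry one label only). Affinity was read by AlphaSeq, a pooled yeast mating assay with surface-displayed partners. Mating (16 h, 30 °C) was followed by selection of diploids and sequencing of their barcodes. Scores were corrected for input abundance and mapped to Kd with protein pairs of known affinity run in the same pool. The assay was run in six technical replicates.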

The parent's heavy chain CDRs are GFTLNSYGIS, VIYSDGRRTFYGDSVK, GRAAGTFDS; each variant's own CDRs replace them letter for letter. Affinities are written as log10 Kd with Kd in nM; a lower number is a better binder. Replicates are averaged; those with no signal do not enter the mean. An entry "n.d." has no value in the source: the pair was not observed among the diploids in that replicate. This suggests poor binding but is not conclusive. The authors averaged sequences with at least three values out of six and counted those with two or fewer as poor binders. The parent sequence was in this pool as ten entries: three were never detected, three once, and four in most replicates, with averages from 0.34 to 2.37. Nonspecific signal, from three strains lacking the peptide, appeared in 1% of pairings of all heavy chain designs, centred on 2.08 (5% of these signals below 0.84); values are not corrected for it. Also given: how often the same scFv was detected with the empty control strains, with their mean in brackets. A sequence that the file lists under several names has all its replicates listed entry by entry, parted by semicolons. The range of this assay differs from that of the first round, and the authors advise against merging the two.

CDR-H1 | CDR-H2 | CDR-H3 | group | log10 Kd, replicates | log10 Kd (nM), mean | signal with controls
GFTLESYGIS | VIYSDGIRTFYGDSVK | GRAAGTFDS | Ctrl | n.d. / 1.53 / 0.93 / 0.31 / 1.99 / 2.03 | 1.36 | 0 of 18
GFTINSYGIS | VIYSDGRRTFYLDSVK | GRAAGTFDS | Ctrl | n.d. / n.d. / n.d. / 2.81 / 1.68 / n.d. | 2.24 | 0 of 18
GFTLEDYGIS | VIYADGRRTAYGNRVK | GRAAGTADS | Ctrl | 1.33 / 1.79 / n.d. / 2.01 / 1.87 / 2.29 | 1.86 | 1 of 18 (2.44)
GFTLNSYGIS | VIYSDGRRTSYGDSVK | GRAAGTNDS | Ctrl | 1.57 / n.d. / n.d. / n.d. / n.d. / n.d. | 1.57 | 0 of 18
GFTLNSYGIS | VIYSDGFRTFYTDSVK | GRAAGFIDS | Ctrl | n.d. / n.d. / n.d. / n.d. / n.d. / n.d. | n.d. | 0 of 18
LHTLNSYGIS | QIYADGRRTFYGDSVK | GRAAGTFDS | Ctrl | n.d. / n.d. / n.d. / n.d. / n.d. / n.d. | n.d. | 2 of 18 (2.86)
GFTLLSYGIS | VIYSDGRRTFYGDSVK | GRAAGRFDL | Ctrl | n.d. / n.d. / n.d. / n.d. / n.d. / n.d. | n.d. | 1 of 18 (0.36)
GDTLLSYGIS | VIYSDGRRTFYGDQVK | GRAAGTFDS | Ctrl | n.d. / n.d. / n.d. / 1.39 / n.d. / n.d. | 1.39 | 1 of 18 (2.21)
GFTLNSYGIS | VIYSDGIRTAYGDSVK | GRAAGTFIS | Ctrl | n.d. / n.d. / n.d. / n.d. / n.d. / n.d. | n.d. | 0 of 18
GFDDNSYGRS | VIYSDGRRTFYGDSVK | GRAAGTFDS | Ctrl | n.d. / n.d. / n.d. / n.d. / n.d. / n.d. | n.d. | 0 of 18
GFTLNSYGIS | VIYSDGRRTFYGDSVK | GRLAGTFDP | Ctrl | 1.01 / 0.12 / 0.31 / n.d. / 0.67 / 0.87 | 0.59 | 0 of 18
GFTLNSYGIS | VIYSDGRRTFYQDSVK | GQAAGTFDS | Ctrl+GPLM_Gen | 1.27 / n.d. / 1.76 / 2.14 / 1.50 / 0.95; n.d. / 1.55 / 1.49 / 2.02 / 0.54 / 1.81 | 1.50 | 1 of 36 (3.17)
GFTLNQYGVS | VIYADGRRTFYGDSVK | GRAAGTFDS | Ctrl | -0.06 / -0.13 / 0.05 / -0.56 / -0.34 / 0.19 | -0.14 | 0 of 18
GFTLNSYGIS | VIYSDGRRTFYGDSVK | GRAAGYFDN | Ctrl | n.d. / 2.40 / 1.34 / n.d. / 3.21 / 2.86 | 2.45 | 0 of 18
GFTLNSYGIS | VIYSDGRRTAYGDSVK | GRAAGTFDL | Ctrl | 1.62 / 0.71 / 0.84 / 1.05 / 0.83 / 0.69 | 0.96 | 1 of 18 (2.35)
GFTPNSYGIS | VIYSDGRRTSYGDSVK | GRAAGTFDS | Ctrl | n.d. / n.d. / n.d. / n.d. / n.d. / n.d. | n.d. | 0 of 18
GFTLNSYGIS | VIYSDGRRTFYEDSVK | GRWAGTFDS | Ctrl | n.d. / n.d. / n.d. / n.d. / n.d. / n.d. | n.d. | 0 of 18
GETLNSYGIS | VIYSDGRRTFYKDSVK | GRACGTFDS | Ctrl | n.d. / n.d. / n.d. / n.d. / n.d. / n.d. | n.d. | 0 of 18
GFHLNSYGIS | VIYSDGRRTFYGDSVK | GRAAFTFDW | Ctrl | n.d. / n.d. / n.d. / n.d. / n.d. / n.d. | n.d. | 0 of 18
GFTLNEYGIS | VIYSDGRRTFYGDSEK | GKVAGTFDV | Ctrl | n.d. / n.d. / n.d. / n.d. / n.d. / n.d. | n.d. | 0 of 18
GFTLNMYGIS | VIYSDGLRTFYLDSVK | GRAAGTFDS | Ctrl | n.d. / n.d. / n.d. / n.d. / n.d. / n.d. | n.d. | 0 of 18
GFPLNKYGIS | VIYSDGRRTFYGDSVK | GRSAGTFDS | Ctrl | n.d. / n.d. / n.d. / n.d. / n.d. / 1.64 | 1.64 | 0 of 18
GFTLNDYGIS | VIYSDGRRTFYGDDVR | GRAAGTFDS | Ctrl | 0.20 / 0.38 / 1.99 / 2.13 / 0.60 / 0.53 | 0.97 | 0 of 18
GFTLNSYGIS | VIYSDGRRTAYGDSVK | GHAAGTFDS | Ctrl | 0.48 / 0.77 / 0.36 / 0.46 / 0.04 / 0.93 | 0.51 | 2 of 18 (2.45)
GFTLESYGIS | VIYSDGRRTFYGDSVK | GRSAGTFDS | Ctrl | n.d. / n.d. / n.d. / 0.70 / n.d. / n.d. | 0.70 | 0 of 18
GFTLNSYGIS | VIYSDGKRTFYRDSVK | GRAKGTFDS | Ctrl | n.d. / n.d. / n.d. / n.d. / n.d. / n.d. | n.d. | 0 of 18
GFTLNEYGIS | VIYSDGRRTFYGDSVK | GRDACTFDS | Ctrl | n.d. / n.d. / n.d. / n.d. / n.d. / n.d. | n.d. | 0 of 18
GFNLNSYGIS | VIYADGYRTFYGDSVK | GREAGTFDT | Ctrl | -0.05 / 0.10 / -0.29 / -0.18 / -0.27 / 0.04 | -0.11 | 0 of 18
GFTLNSYGIS | VIYSDGRRTFYGDSVK | GRDALTFVS | Ctrl | 1.42 / 2.15 / 3.35 / 1.69 / 2.41 / 2.34 | 2.23 | 0 of 18
GFTLNSYGIS | VIYSDGRRTFYGDSVK | GFAAGTFNK | Ctrl | n.d. / n.d. / n.d. / n.d. / n.d. / n.d. | n.d. | 0 of 18
GFTLNSYGIS | VIYSDGRRTAYGDSVK | GSAAGTFDS | Ctrl | 0.46 / 0.68 / 0.57 / 0.67 / 0.54 / 0.86 | 0.63 | 0 of 18